According to PubChem BioAssay AID2648 (Johns Hopkins Ion Channel Center, 2010):
The entries are a selection whose mix differs from that of the whole data set. Some results for these compounds are left out of this collection, so the calls shown say nothing about other tests. Calls of active or inactive are those of the source.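 The calls were made as follows: active = fluorescence ratio B-score, a plate-corrected score, at least three library SD, with initial intensity B-score within 5 SD; inactive = the rest.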

By UniProt entry, the sequences of proteins in these tests, tags left out.
UniProt P51787, whole entry: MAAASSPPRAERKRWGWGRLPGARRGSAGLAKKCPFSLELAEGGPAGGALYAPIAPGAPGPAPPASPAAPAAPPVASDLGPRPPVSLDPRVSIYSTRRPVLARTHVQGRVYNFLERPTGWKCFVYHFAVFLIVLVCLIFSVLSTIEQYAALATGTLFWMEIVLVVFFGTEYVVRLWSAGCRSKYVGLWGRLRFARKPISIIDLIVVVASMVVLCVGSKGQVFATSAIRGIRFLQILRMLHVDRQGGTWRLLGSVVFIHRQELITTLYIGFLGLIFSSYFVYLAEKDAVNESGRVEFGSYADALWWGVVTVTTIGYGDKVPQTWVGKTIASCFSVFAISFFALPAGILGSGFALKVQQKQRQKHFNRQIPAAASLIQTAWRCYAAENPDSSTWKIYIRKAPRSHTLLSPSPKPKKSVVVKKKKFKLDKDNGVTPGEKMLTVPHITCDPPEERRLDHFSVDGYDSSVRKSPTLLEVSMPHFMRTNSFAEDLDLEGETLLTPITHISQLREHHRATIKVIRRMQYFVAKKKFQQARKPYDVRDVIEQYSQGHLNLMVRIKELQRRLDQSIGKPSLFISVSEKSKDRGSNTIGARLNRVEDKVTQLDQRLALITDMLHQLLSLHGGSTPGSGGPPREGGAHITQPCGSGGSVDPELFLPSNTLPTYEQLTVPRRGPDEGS

Molecular target: Potassium voltage-gated channel subfamily KQT member 1 (Homo sapiens) (UniProt P51787)
Experiment: potentiators or activators of KCNQ1 channel, primary screen, cell-based, thallium flux, high-throughput (AID 2648)
Settings: CHO-K1 KCNQ1, thallium flux FluxOR fluorescence; at 10 µM

Compound	outcome
O=C(NCC1(N2CCCCC2)CCCCC1)c1cc([N+](=O)[O-])ccc1Cl	inactive
CN1[C@@H]2CC[C@H]1CC(OC(=O)C(O)(c1ccccc1)c1ccccc1)C2 (some centres undefined)	inactive
CC(C)N1C(=O)CC2(CCN(CCOC(=O)C(O)(c3ccccc3)c3ccccc3)CC2)C1=O	inactive
COc1cc(SC)ccc1C(=O)NCC1(N(C)C)CCCCC1	inactive
CCN(CC)CC(C)C(C)OC(=O)C(O)(c1ccccc1)c1ccccc1 (centres undefined)	inactive
Cc1ccc(C(=O)NCC2(N3CCCCC3)CCCCC2)cc1	inactive
CN(C)C1CCCC1OC(=O)C(O)(c1ccccc1)c1ccccc1 (centres undefined)	inactive
CN(C)c1ccc(C(=O)NCC2(N(C)C)CCCCC2)cc1	inactive
Cc1ccccc1C(=O)NCC1(N2CCCCC2)CCCCC1	inactive
O=C(NCC1(N2CCCCC2)CCCCC1)c1cc(F)c(F)cc1Cl	inactive
C=CCN1CCN(CCOC(=O)C(O)(c2ccccc2)c2ccccc2)CC1	inactive
O=C(NCC1(N2CCCCC2)CCCCC1)c1cccc(Br)c1	inactive
Cc1cc(C(=O)NCC2(N3CCCCC3)CCCCC2)ccc1[N+](=O)[O-]	inactive
CCN1CCCC(OC(=O)C2(O)c3ccccc3C=Cc3ccccc32)C1 (centres undefined)	inactive
COc1ccc(C(=O)NCC2(N(C)C)CCCCC2)cc1	inactive
CN(C)C1(CNC(=O)c2ccc(Br)cc2)CCCCC1	inactive
COc1cc(C(=O)NCC2(N(C)C)CCCCC2)c([N+](=O)[O-])cc1OC	inactive
COc1ccc(Cl)cc1C(=O)NCC1(N(C)C)CCCCC1	inactive
COc1cccc(C(=O)NCC2(N3CCCCC3)CCCCC2)c1	inactive
O=C(NCC1(N2CCCCC2)CCCCC1)c1cccc(Cl)c1	inactive
O=C(OC1CN2CCC1CC2)C(CO)(c1ccccc1)c1ccccc1 (centres undefined)	inactive
COc1ccc(Br)c(C(=O)NCC2(N3CCCCC3)CCCCC2)c1	inactive
CN(C)c1cccc(C(=O)NCC2(N(C)C)CCCCC2)c1	inactive
CC(C)Oc1ccc(C(=O)NCC2(N(C)C)CCCCC2)cc1	inactive
